Each structure is given as a SMILES string. “And” between values parts separate entries of the source, which are not always exact repeats. Equal values may be shown once. The entries are a selection whose mix differs from that of the whole data set.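 Plates (96-well) were seeded with cells, treated with compound at one concentration, and incubated for 48 hours before percent growth was determined.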 Some salts and complexes are drawn in separate pieces, as the source files them; their charges need not balance. The source made the active and inactive calls. How the source made its calls: active means growth percent below 10; inactive means the rest.

The test system of this experiment is COLO 205 colon. Briefly: NCI-60 one-dose screen, 48 h (100 = growth as untreated, 0 = no growth, -100 = all killed). The conditions noted are these: 10 µM.
With `CCCOP(=S)(Cl)OCCC`, the growth is inactive: 116%. The result for `CN(C)CCS` reads inactive: 121% and inactive: 102%; that for `O=C(O)C1(O)c2ccccc2-c2ccccc21`, inactive: 98.4%.

Take `Nc1cccc(Cl)c1.O=[N+]([O-])c1cc([N+](=O)[O-])c(O)c([N+](=O)[O-])c1`: the growth is inactive: 119%. The result for `OCCSCCO` reads inactive: 107%; that for `Nc1cc([As](Cl)Cl)cc(N)c1O`, inactive: 88.7%; that for `O=[N+]([O-])N(CCN(CC(Br)([N+](=O)[O-])[N+](=O)[O-])[N+](=O)[O-])CC(Br)([N+](=O)[O-])[N+](=O)[O-]`, inactive: 104%. The result for `O=C1N([N+](=O)[O-])CCN1[N+](=O)[O-]` reads inactive: 98.1%. The result for `CC[N+]([O-])(CC)Cc1ccccc1.O=[N+]([O-])c1cc([N+](=O)[O-])c(S(=O)(=O)O)c([N+](=O)[O-])c1` reads inactive: 119%; that for `CP(=O)(OCCCl)N(CCCl)CCCl` (stereo not given), inactive: 116%. For the compound `CN(CCO)CCCl.O=[N+]([O-])c1cc([N+](=O)[O-])c(O)c([N+](=O)[O-])c1`, the growth was inactive: 108%.

`CCN(CC)CCOC(=O)C(O)(c1ccccc1)c1cc(C)c(C)c(C)c1C` (stereo not given): the growth was inactive: 89.2%. The result for `CCN(CC)CCOC(=O)C(O)(c1ccccc1)c1cc(C)cc(C)c1C` (stereo not given) reads inactive: 100%; that for `CCN(C)CC.O=[N+]([O-])c1cc([N+](=O)[O-])c(O)c([N+](=O)[O-])c1`, inactive: 104%. The result for `O=C(Cl)c1c([N+](=O)[O-])cc([N+](=O)[O-])cc1[N+](=O)[O-]` reads inactive: 18.4%; that for `COc1ccc(C(O)(C(=O)OCCN2CCCCC2)c2ccc(OC)cc2)cc1`, inactive: 130%; that for `Cc1c([N+](=O)[O-])c(C)c([N+](=O)[O-])c(C)c1[N+](=O)[O-]`, inactive: 135%. The result for `O=C(OCCN1CCCCCCCC1)C(O)(c1ccccc1)c1ccccc1` reads inactive: 108%; that for `CN/C(N)=N/[N+](=O)[O-]`, inactive: 113%; that for `CCOC(=O)Nc1c([N+](=O)[O-])cc([N+](=O)[O-])cc1[N+](=O)[O-]`, inactive: 95%. In the case of `O=[N+]([O-])c1cc([N+](=O)[O-])c(Nc2nnnn2CCO)c([N+](=O)[O-])c1`, the growth was inactive: 148%. The result for `Cc1c([N+](=O)[O-])cc([N+](=O)[O-])c(Br)c1[N+](=O)[O-]` reads active: -76.8%; that for `CN1CCN(CCOC(=O)C(O)(c2ccccc2)c2ccccc2)CC1`, inactive: 102%; that for `O=[N+]([O-])c1cc([N+](=O)[O-])c(O)c([N+](=O)[O-])c1.c1ccc([I+]c2ccccc2)cc1`, inactive: 59.1%. The result for `Nc1cc([N+](=O)[O-])cc([N+](=O)[O-])c1O` reads inactive: 116% and inactive: 106%.

As for `CC(C)N1CCN(CCOC(=O)C(O)(c2ccccc2)c2ccccc2)CC1`, the growth is inactive: 97.4%.

In the case of `CC(C)N(CCCl)C(C)C`, the growth is inactive: 119%. The result for `O=[N+]([O-])OCCOc1ccc([N+](=O)[O-])cc1[N+](=O)[O-]` reads inactive: 113%. The result for `O=[N+]([O-])N(CCOC(N(F)F)(N(F)F)N(F)F)CC([N+](=O)[O-])([N+](=O)[O-])[N+](=O)[O-]` reads inactive: 92.2%. The result for `NN/C(N)=N/[N+](=O)[O-]` reads inactive: 122%.

Values taken from PubChem BioAssay (NCI).
